Measured values reported in patent US11420967B2 (priority 2018, dated 2022).

Amino acid sequences for entries named in this document (tags omitted).
UniProt P34972, whole entry: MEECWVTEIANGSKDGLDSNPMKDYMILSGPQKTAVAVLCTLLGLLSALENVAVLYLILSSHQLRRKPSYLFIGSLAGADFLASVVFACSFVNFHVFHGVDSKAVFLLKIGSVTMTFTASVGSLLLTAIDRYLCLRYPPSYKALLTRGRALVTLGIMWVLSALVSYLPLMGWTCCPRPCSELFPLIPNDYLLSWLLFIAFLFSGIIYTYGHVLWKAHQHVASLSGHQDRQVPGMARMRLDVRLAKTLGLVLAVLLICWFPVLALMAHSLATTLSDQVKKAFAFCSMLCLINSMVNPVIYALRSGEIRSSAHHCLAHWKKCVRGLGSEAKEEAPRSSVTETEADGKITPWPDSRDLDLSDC

Target: T1, cannabinoid CB2 receptor (hCB2) (Homo sapiens, UniProt P34972)
T1 construct: expressed in transfected cells; host or cells: HEK293
Assay: β-arrestin recruitment in hCB2-transfected HEK293 cells
Format: cell-based

SMILES: CCn1c2ccccc2c2cc(C(=O)c3ccc(C)c4ccccc34)ccc21 [Compound 8, 9-ethyl-3-[(4-methylnaphthalen-1-yl)carbonyl]-9H-carbazole]
- Agonist efficacy (% activation) CB2: 8 % activation
- Antagonist efficacy (% activation) CB2: 52 % activation
